# Measurements reported in patent EP1605976B1, “PHENYLCARBOXYL ACID AMIDES AND IK r CHANNEL INHIBITORS COMBINATION AND THE USE THEREOF FOR TREATING ATRIAL ARRHYTHMIA” (Sanofi-Aventis Deutschland GmbH, priority 2003, dated 2004).
# Amino acid sequences for entries named in this document (tags omitted).
# UniProt P22460, whole entry: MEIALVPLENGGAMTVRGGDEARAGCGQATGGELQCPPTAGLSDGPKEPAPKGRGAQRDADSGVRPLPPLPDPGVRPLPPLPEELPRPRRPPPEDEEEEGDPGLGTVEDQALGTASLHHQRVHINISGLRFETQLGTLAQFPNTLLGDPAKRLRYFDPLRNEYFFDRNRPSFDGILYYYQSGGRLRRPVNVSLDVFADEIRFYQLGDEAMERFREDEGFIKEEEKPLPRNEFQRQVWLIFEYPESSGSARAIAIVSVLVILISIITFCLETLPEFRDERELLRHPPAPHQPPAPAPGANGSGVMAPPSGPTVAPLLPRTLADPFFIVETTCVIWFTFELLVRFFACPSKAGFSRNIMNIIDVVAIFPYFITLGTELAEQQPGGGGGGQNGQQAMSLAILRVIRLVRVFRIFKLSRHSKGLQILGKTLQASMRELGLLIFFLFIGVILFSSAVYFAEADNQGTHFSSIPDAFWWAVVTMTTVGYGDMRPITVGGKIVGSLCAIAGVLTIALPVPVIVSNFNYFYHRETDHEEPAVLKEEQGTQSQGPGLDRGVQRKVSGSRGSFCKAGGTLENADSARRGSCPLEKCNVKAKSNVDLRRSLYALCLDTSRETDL
# Target: Kv1.5-Kanal (Homo sapiens, UniProt P22460)
# Conditions: human Kv1.5 in Xenopus oocytes, voltage steps to 0 mV and 40 mV, room temperature, Hill equation
smiles,measurement,value
"CCCCS(=O)(=O)Nc1ccccc1C(=O)N[C@H](CC)c1ccc(OC)nc1 [Beispiel 5, 2-(Butyl-1-sulfonylamino)-N-[1(R)-(6-methoxy-pyridin-3-yl)-propyl]-benzamid]",IC50,10 µM
